Literature values, collected in patent US11224633B2, “Kit for treating sepsis and/or any systemic (SIRS) or damaging cellular hyperinflammation” (priority 2015, dated 2022).

Settings: in vivo; cited from earlier work

Question: With `[Se]` [selenium] as the compound, how does the “NOAEL No Adverse Effect Level determined in nutrition” value read?
Answer: 800 µg
